What all share (type): cell-based
Assay [1] concerns the target T1, apelin receptor AGTRL1 (Homo sapiens, UniProt P35414).
T1 sequence (P35414 1-380): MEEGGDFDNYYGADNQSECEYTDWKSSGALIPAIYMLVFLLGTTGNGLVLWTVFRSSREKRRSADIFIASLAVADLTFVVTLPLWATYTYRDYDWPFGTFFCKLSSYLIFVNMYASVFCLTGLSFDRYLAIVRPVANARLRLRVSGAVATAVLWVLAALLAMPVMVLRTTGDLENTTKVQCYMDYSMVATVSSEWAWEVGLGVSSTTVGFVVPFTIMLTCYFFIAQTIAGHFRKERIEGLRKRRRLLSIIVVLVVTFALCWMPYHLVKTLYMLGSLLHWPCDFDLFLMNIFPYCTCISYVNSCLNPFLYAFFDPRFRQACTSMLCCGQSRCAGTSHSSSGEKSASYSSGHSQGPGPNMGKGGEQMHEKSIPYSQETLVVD
The experiment in a line: AGTRL1 cAMP assay.

Protein sequences, listed by entry. Tags and fused reporters are not part of them. Residues count along the entry.
UniProt O60894, 27-148: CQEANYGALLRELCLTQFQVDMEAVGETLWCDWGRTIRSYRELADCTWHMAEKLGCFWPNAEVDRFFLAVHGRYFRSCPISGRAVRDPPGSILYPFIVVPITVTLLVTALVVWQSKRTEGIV
UniProt Q16602, 23-461: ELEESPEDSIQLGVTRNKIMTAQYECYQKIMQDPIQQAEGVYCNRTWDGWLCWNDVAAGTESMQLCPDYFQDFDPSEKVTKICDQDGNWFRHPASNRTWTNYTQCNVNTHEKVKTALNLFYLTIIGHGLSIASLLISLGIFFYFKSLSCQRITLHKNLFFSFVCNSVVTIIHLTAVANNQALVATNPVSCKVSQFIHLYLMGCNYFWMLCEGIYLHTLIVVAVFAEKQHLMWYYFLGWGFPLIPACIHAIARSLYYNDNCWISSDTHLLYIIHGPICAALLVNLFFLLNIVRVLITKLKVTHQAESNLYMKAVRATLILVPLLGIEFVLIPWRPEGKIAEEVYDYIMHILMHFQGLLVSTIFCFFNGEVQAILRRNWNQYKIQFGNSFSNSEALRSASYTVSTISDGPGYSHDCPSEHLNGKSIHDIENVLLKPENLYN
UniProt O60895, 43-175: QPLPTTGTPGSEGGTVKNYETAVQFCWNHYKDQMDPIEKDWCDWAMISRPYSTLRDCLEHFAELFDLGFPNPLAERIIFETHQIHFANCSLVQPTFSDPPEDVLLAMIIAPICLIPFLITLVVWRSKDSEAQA
UniProt O60896, 24-148: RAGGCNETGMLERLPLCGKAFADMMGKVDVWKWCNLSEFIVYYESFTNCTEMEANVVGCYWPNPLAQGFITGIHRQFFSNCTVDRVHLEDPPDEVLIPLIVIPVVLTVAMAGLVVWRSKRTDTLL

Assay [2] deals with T2, CLR/RAMP1 receptor (Homo sapiens, UniProt O60894+Q16602). Description: CLR/RAMP1 cAMP receptor-activation assay (agonist mode).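 Note: Dose–response over 10 threefold dilutions from 1.0 µM, run in duplicate, luminescent cAMP detection (RLU), activity scaled between vehicle control (0%) and maximal control (100%).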 Particulars: 1321N1 cells stably expressing CLR/RAMP1.
The target of assay [3] is T3, CLR/RAMP2 receptor (Homo sapiens, UniProt O60895+Q16602). Description: CLR/RAMP2 arrestin receptor-activation assay (agonist mode).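 Note: agonist dose-response in recombinant cell lines stably expressing each receptor complex, duplicate wells over 10 threefold dilutions from a top concentration of 1.0 µM.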 The following applies: CHO-K1 cells stably expressing CLR/RAMP2.
Assay [4] addresses T4, bradykinin receptor 1 (BDKRB1) (Homo sapiens, UniProt P46663).
T4 sequence (P46663 1-353): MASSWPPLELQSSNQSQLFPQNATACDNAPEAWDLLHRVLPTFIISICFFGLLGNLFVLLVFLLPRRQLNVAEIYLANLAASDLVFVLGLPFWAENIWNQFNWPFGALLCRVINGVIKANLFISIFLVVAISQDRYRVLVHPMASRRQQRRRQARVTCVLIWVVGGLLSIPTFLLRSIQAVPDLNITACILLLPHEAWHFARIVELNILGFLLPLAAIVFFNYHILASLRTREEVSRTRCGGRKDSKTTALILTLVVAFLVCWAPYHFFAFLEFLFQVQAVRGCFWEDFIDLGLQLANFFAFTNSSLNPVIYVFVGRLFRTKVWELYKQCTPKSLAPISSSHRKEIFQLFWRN
The experiment in a line: BDKRB1 calcium flux assay, antagonist mode.

The target of assay [5] is T3, CLR/RAMP2 receptor. Description: CLR/RAMP2 arrestin assay, antagonist mode (ADM-stimulated). Particulars: ADM-stimulated (EC80) CLR/RAMP2 receptor activation.
Assay [6] has as its target T2, CLR/RAMP1 receptor. Description: CLR/RAMP1 cAMP assay, antagonist mode (CGRP-stimulated). Particulars: CGRP-stimulated (EC80) CLR/RAMP1 receptor activation.
Assay [7] has as its target type 1 angiotensin II receptor AGTR1 (Homo sapiens, UniProt P30556). The experiment in a line: AGTR1 calcium flux assay, antagonist mode.
Assay [8] concerns the target CLR/RAMP3 receptor (Homo sapiens, UniProt O60896+Q16602). Description: CLR/RAMP3 cAMP receptor-activation assay (agonist mode). The following applies: CHO-K1 cells stably expressing CLR/RAMP3.

Our source for the EC50 and IC50 values is patent US20250154219A1, “PEPTIDE ANALOGS” (Adepthera LLC, priority 2017, published 2025).

“And” between values parts separate entries of the source, which are not always exact repeats. Equal entries are not always repeated. Where two headings read alike, the source gives them in different places. Some results are limits rather than exact numbers.

“(G1p)RPRLSHKGPMPF [Apelin 13, reference compound]”: the EC50 in assay [1] was found to be 0.6 nM; in assay [1] (listed as apelin-13), 0.57 nM.
For “(Glp)RPRLSHKGP(Nle)PF-miniPEG-K(PAL)GCRFGTCTVQKLAHQIYQFTDKDVAPRSKISPQGY-NH2 [SEQ ID NO: 228]”, the EC50 in assay [2] was 0.6 nM; in assay [3], 2 nM; in assay [1], 38.5 nM and 38 nM.
For the substance “Ace-KRPPGFS-DβNal-I-miniPEG-K(PAL)GCRFGTCTVQKLAHQIYQFTDKDVAPRSKISPQGY-NH2 [SEQ ID NO: 231]”, the EC50 in assay [2] turned out to be 0.8 nM; in assay [3], 1 nM. The half-maximal inhibitory concentration (IC50) in assay [4] was 79.4 nM and 79 nM.
With Ace-NFVPTNVGPFAF-NH2 [SEQ ID NO: 144], the IC50 in assay [5] was greater than 10000 nM.
For the substance “Ace-PEG3-K(Hexadecanoyl-PEG3-isoGlu)GCRFGTCTVQKLAHQIYQFTDKDKDNVAPRSKISPQGY-NH2 [SEQ ID NO: 154]”, the EC50 in assay [2] was 1.6 nM; in assay [3], 1.7 nM.
Consider “Ace-PEG3-K(Hexadecanoyl-isoGlu)GCRFGTCTVQKLAHQIYQFTDKDKDNVAPRSKISPQGY-NH2 [SEQ ID NO: 151]”, for which the EC50 in assay [2] was 0.5 nM; in assay [3], 1.4 nM.
The matching figures for “Ace-PEG3-K(Hexadecanoyl-isoGlu-PEG3)GCRFGTCTVQKLAHQIYQFTDKDKDNVAPRSKISPQGY-NH2 [SEQ ID NO: 152]”: 2.5 nM and 2.4 nM.
Consider “Ace-PEG3-K(Hexadecanoyl-isoGlu-PEG3-PEG3)GCRFGTCTVQKLAHQIYQFTDKDKDNVAPRSKISPQGY-NH2 [SEQ ID NO: 153]”, for which the EC50 stood at 7.3 nM in assay [2] and 3.5 nM in assay [3].
The matching figures for “Ace-PEG3-K([19-carboxy-nonadecanoyl]-PEG3-isoGlu)GCRFGTCTVQKLAHQIYQFTDKDKDNVAPRSKISPQGY-NH2 [SEQ ID NO: 156]”: 0.8 nM and 1.2 nM.
The matching figures for “Ace-PEG3-K([19-carboxy-nonadecanoyl]-isoGlu)GCRFGTCTVQKLAHQIYQFTDKDKDNVAPRSKISPQGY-NH2 [SEQ ID NO: 155]”: 0.6 nM and 1.8 nM.
With “Ace-PEG3-K([19-carboxy-nonadecanoyl]-isoGlu-PEG3)GCRFGTCTVQKLAHQIYQFTDKDVAPRSKISPQGY-NH2 [SEQ ID NO: 159]”, the EC50 in assay [2] stood at 1.3 nM; in assay [3], 1.1 nM.
The matching figures for “Ace-PEG3-K([19-carboxy-nonadecanoyl]-isoGlu-Peg3-Peg3)GCRFGTCTVQKLAHQIYQFTDKDKDNVAPRSKISPQGY-NH2 [SEQ ID NO: 157]”: 2.8 nM and 1.8 nM.
With “Ace-PEG12-PEG12-K([19-carboxy-nonadecanoyl]-isoGlu-PEG3)GCRFGTCTVQKLAHQIYQFTDKDKDNVAPRSKISPQGY-NH2 [SEQ ID NO: 150]”, the 50% effective concentration (EC50) in assay [2] turned out to be 2.4 nM; in assay [3] it was 1.9 nM.
The matching figures for “Ace-RPKPQQFFGLM-miniPEG-K(PAL)GCRFGTCTVQKLAHQIYQFTDKDSAPVDPSSPHSY-NH2 [SEQ ID NO: 147]”: 0.14 nM and 0.71 nM.
In turn, “Ace-Y(D-Ala)GF(D-Leu)-miniPEG-K(Pal)VQKLSAPVDPSSPHSY-NH2 [SEQ ID NO: 145]” displayed an IC50 in assay [6] of less than 0.5 nM.
Same read-out and setting: in the case of “Ace-YGGFLRRIRPKLK-miniPEG-K(Pal)VQKLSAPVDPSSPHSY-NH2 [SEQ ID NO: 146]” it was less than 0.5 nM.
In the case of “AcePEG3--K([17-carboxy-heptadecanoyl]-isoGlu-Peg3-Peg3)GCRFGTCTVQKLAHQIYQFTDKDKDNVAPRSKISPQGY-NH2 [SEQ ID NO: 158]”, the EC50 came to 5.7 nM in assay [2] and 3.6 nM in assay [3].
The matching figures for “Pyr(glu)-LYENKPRRPYIL-miniPEG-K(PAL)GCRFGTCTVQKLAHQIYQFTDKDVAPRSKISPQGY-NH2 [SEQ ID NO: 223]”: 0.8 nM and 1 nM.
Take “Pyr(glu)-LYENKPRRPYIL-miniPEG-K(Pal)VQKLSAPVDPSSPHSY-NH2 [SEQ ID NO: 224]”: the results for the IC50 in assay [6] and in assay [5] were less than 0.5 nM and 1.5 nM, respectively. Further, in assay [2], the response was half-maximal at 0.3 nM (EC50).
In the case of “Sar-RVYVHPA-miniPEG-K(PAL)GCRFGTCTVQKLAHQIYQFTDKDVAPRSKISPQGY-NH2 [SEQ ID NO: 234]”, the figures for the EC50 in assay [2] and in assay [3] were 0.3 nM and 1 nM, respectively. Moreover, the IC50 in assay [7] was 19.9 nM and 20 nM.
For the substance “miniPEG-K(PAL)CRFGTCTVQKLAHQIYQFTDKDKDNSAPVDPSSPHSY-NH2 [SEQ ID NO: 43]”, the EC50 in assay [2] stood at 0.5 nM; in assay [3] it was 0.2 nM.
On the same counts, the results for “miniPEG-K(PAL)GCRFGTC(D-Thr)VQKLAHQIYQFTDKDVAPRSKISPQGY-NH2 [SEQ ID NO: 210]” are 7.1 nM and 1.4 nM.
The matching figures for “miniPEG-K(PAL)GCRFGTCT(D-Val)QKLAHQIYQFTDKDVAPRSKISPQGY-NH2 [SEQ ID NO: 211]”: 8 nM and 0.9 nM.
With “miniPEG-K(PAL)GCRFGTCTVQKLAHQIYQFTDKDKDNVAPRSKISPQGY-NH2 [SEQ ID NO: 69]”, the EC50 in assay [3] and in assay [8] was 0.6 nM each time.
Regarding “miniPEG-K(PAL)GCRFGTCTVQKLAHQIYQFTDKDKDNVAPVDPSSPHSY-NH2 [SEQ ID NO: 50]”, the half-maximal effective concentration (EC50) in assay [2] and in assay [3] was 1.2 nM each time.
Consider “miniPEG-K(PAL)GCRFGTCTVQKLAHQIYQFTDKDKDNVDPSSPHSY-NH2 [SEQ ID NO: 94]”, for which the EC50 in assay [2] stood at 11 nM; in assay [3], 1.3 nM.
The matching figures for “miniPEG-K(PAL)GCRFGTCTVQKLAHQIYQFTDKDKDSAPVDPSSPHSY-NH2 [SEQ ID NO: 46]”: 0.7 nM and 0.5 nM.
On the same counts, the results for “miniPEG-K(PAL)GCRFGTCTVQKLAHQIYQFTDKDKQDSAPVDPSSPHSY-NH2 [SEQ ID NO: 51]” are 0.2 nM and 0.3 nM.
The matching figures for “miniPEG-K(PAL)GCRFGTCTVQKLAHQIYQFTDKDKSAPVDPSSPHSY-NH2 [SEQ ID NO: 47]”: 1.5 nM and 0.4 nM.
As for “miniPEG-K(PAL)GCRFGTCTVQKLAHQIYQFTDKDVAPR(D-Ser)KISPQGY-NH2 [SEQ ID NO: 213]”, the EC50 in assay [2] and in assay [3] was 0.7 nM in each case.
Regarding “miniPEG-K(PAL)GCRFGTCTVQKLAHQIYQFTDKDVAPRSKISP(D-Gln)GY-NH2 [SEQ ID NO: 214]”, the EC50 in assay [2] was 1.1 nM; in assay [3], 0.4 nM.
Regarding “miniPEG-K(PAL)GCRFGTCTVQKLAHQIYQFTDKDVAPRSKISPQGY-NH2 [SEQ ID NO: 101]”, the figures for the EC50 in assay [3] and in assay [8] were 0.3 nM and 0.5 nM, respectively.
As for “miniPEG-K(PAL)GCRFGTCTVQKLAHQIYQFTDKGRQDSAPVDPSSPHSY-NH2 [SEQ ID NO: 68]”, a half-maximal effect in assay [3] (EC50) was put at 7 nM. This lies in the single-digit nanomolar range.
